The assay concerns the target Substance-K receptor (Homo sapiens, UniProt P21452). Kind of assay: Binding affinity to human NK2 receptor by radioligand displacement assay. A general note: Loss of bound radioactivity is the signal in a displacement assay; it reports binding, not function.

By UniProt entry, the sequences of proteins in these tests, tags left out.
UniProt P21452, whole entry: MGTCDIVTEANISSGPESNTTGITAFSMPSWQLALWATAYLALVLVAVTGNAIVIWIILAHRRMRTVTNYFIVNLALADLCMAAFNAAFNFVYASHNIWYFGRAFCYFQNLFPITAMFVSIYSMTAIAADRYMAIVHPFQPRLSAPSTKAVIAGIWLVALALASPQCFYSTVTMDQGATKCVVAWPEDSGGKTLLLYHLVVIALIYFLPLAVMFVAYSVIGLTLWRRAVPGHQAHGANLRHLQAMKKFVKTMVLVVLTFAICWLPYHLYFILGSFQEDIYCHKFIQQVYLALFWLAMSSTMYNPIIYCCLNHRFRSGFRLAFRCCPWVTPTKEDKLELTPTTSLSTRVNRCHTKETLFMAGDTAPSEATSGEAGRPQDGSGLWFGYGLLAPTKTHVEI

What is called IC50 is the midpoint of a concentration-inhibition curve. A high value points to lower potency.

Turning to `CCCC[C@H](NC(=O)[C@H](CC(C)C)NC(=O)CNC(=O)[C@@H](NC(=O)[C@H](Cc1ccccc1)NC(=O)[C@H](CO)NC(=O)[C@@H](N)CC(=O)O)C(C)C)C(N)=O`, the IC50 was 9.2 nM.

For the origin of these results see BindingDB's records for doi:10.1016/j.ejmech.2013.01.044 (University of Siena, 2013).
